# Test system: dorsal root ganglion (DRG) neurons
smiles,measurement,setting,value
COC1=CC=C2[C@H]3Cc4ccc(OC)c5c4[C@@]2(CCN3C)[C@H]1O5,"Alteration of action potential duration, opioid at low concentration",< nM,Prolongation
same,"Alteration of action potential duration, opioid at high concentration",μM,Shortening
